The text below walks through data of PubChem BioAssay AID901 (National Center for Advancing Translational Sciences (NCATS), 2007).

Protein sequences, listed by entry. Tags and fused reporters are not part of them.
UniProt P97697, whole entry: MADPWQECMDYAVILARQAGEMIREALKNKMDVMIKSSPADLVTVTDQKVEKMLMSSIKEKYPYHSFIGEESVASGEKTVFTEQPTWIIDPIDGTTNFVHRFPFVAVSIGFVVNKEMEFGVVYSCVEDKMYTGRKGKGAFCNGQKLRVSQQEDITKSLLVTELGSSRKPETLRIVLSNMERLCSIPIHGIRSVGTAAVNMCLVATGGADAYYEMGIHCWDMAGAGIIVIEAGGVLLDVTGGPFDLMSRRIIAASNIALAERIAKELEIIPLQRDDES

SMILES strings stand for the structures. The list shows a part of the results, in another mix than the full data. Some tests of the compounds listed are not included; inactive here does not mean inactive elsewhere. Inconclusive results are not listed. Activity calls are given as the source filed them. Calls come from the whole dose curve; as a rule, active = well fitted curve in the direction sought with a large enough effect in the signal ratio (not every such curve was filed as active); inconclusive = small, poorly fitted or top-dose-only effect, or a change in a side signal; inactive = no such curve, though single readings can be large or run the other way; the % refers to the signal ratio.

This experiment concerns the target Inositol monophosphatase 1 (Rattus norvegicus) (UniProt P97697). The experiment can be described thus: qHTS Assay for Identifying the Cell-Membrane Permeable IMPase Inhibitors.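 Note: plate controls were DMSO basal wells for no effect and reference inhibitor wells for full effect; higher means more IMPase inhibition seen as more IP1 and lower FRET ratio.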 To be noted: CHO-M1 cells, HTRF TR-FRET ratio; at 46.1 µM (top of the series). The text has this:
NCGC IMPase Assay Overview
Lithium has been widely used for the treatment of bipolar disorder. But lithium has a narrow therapeutic index and it can cause side effects such as thirst, weight gain, tremor, polyuria and memory problems. Although the mechanism for lithium action in treatment of bipolar disorder is still not fully understood, inhibition of inositol monophosphatase (IMPase) and the subsequent depletion of the inositol pool in living cells have been implicated as the primary therapeutic benefit of lithium therapy. Therefore, a selective IMPase inhibitor with reduced side effects might be a good drug candidate to replace lithium for the treatment of bipolar disorder. Several IMPase inhibitors have been discovered previously. However, they are not suitable for therapeutic use because of their poor cell membrane penetrability or oral bioavailability; the development of new cell-permeable IMPase inhibitors is needed.
IMPase catalyzes the hydrolysis of inositol-1-phosphate (IP1) to release free inositol. Binding of an agonist to a Gq coupled GPCR results in the activation of PLC, which hydrolyzes the PIP2 to form inositol-1,4,5-trisphosphate (IP3) and diacyl glycerol (DAG). While DAG activates protein kinase C (PKC), IP3 triggers the elevation of intracellular free Ca2+. The IP3 is very rapidly inactivated by hydrolysis to IP2, IP1 and then inositol by a series of enzymes including IMPase. Free inositols are used for synthesis of PI and thus start another inositol cycle.
To identify new cell-permeable IMPase inhibitors, we developed a cell-based IMPase assay in which the cytosolic IP1 is measured by a time-resolved fluorescence resonance energy transfer (TR-FRET) assay. In this assay, an IP1 specific antibody is used to detect the labeled IP1 tracer. When the cell lysate contains the elevated IP1 due to the inhibition of IMPase, the TR-FRET between the labeled antibody and IP1 tracer is disrupted resulting in a reduction in the total signal. Since the TR-FRET is used, this cell-based assay is a homogenous assay without cell wash and medium change that is suitable for assay miniaturization and HTS.
NCGC IMPase Assay Protocol Summary
A Chinese hamster ovary (CHO) cell line stably expressing the M1 receptor (CHO-M1) was obtained from ATCC and maintained in F-12 Kaighn's media (Invitrogen, Carlsbad, CA, 21127) supplemented with 10 % FBS, 100 units/ml penicillin, 100 ug/ml streptomycin and 250 ug/ml geneticin at 37C, 5% CO2 in a humidified atmosphere. Before the assay, aliquots of cells were frozen and stored at -135C. The assay was performed in 1536-well format. […] AC50 values were determined from concentration-response data modeled with the standard Hill equation. […]
(7) Detect the assay plate (Ex = 320, Em1 =665 and Em2 620) in a ViewLux plate reader. […]
For orientation: qHTS replaces the single test concentration by a dilution series.
As for `CC(C)N1C(=O)CC2(CCN(CCOC(=O)C(O)(c3ccccc3)c3ccccc3)CC2)C1=O`, the inhibition (IP1 accumulation) is inactive: 4.91%.

On to `CN(C)C1CCCC1OC(=O)C(O)(c1ccccc1)c1ccccc1` (centres undefined), for which the inhibition (IP1 accumulation) is inactive: 14.7%.

For the compound `CN(C)c1cccc(C(=O)NCC2(N(C)C)CCCCC2)c1`, the inhibition (IP1 accumulation) was inactive: -0.198%.

In the case of `O=C(OC1CN2CCC1CC2)C(CO)(c1ccccc1)c1ccccc1` (centres undefined), the inhibition (IP1 accumulation) was inactive: 17.5%.
